Antibody variant affinities, Ab-14 heavy chain, assay 1

The target is the same throughout: PDVDLGDISGINAS, from the HR2 region of SARS-CoV-2 spike.

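The starting antibody came from a phage panning campaign against this peptide. In library AAYL49, one, two or three CDR residues were substituted; doubles and triples were drawn at random. In AlphaSeq, yeast of one mating type display the scFv and yeast of the other type display the target. The frequency of each diploid, read from paired DNA barcodes, reflects how well the two displayed proteins bind. The ratio of observed to expected reads was calibrated, replicate by replicate, on BCL2-family standards whose Kd was known from biolayer interferometry. Each pool was mated in three replicate cultures.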

The variants keep the light chain, the linker and the frameworks of Ab-14 (scFv order VH, the linker GGGGSGGGGSGGGGS, VL).
VH: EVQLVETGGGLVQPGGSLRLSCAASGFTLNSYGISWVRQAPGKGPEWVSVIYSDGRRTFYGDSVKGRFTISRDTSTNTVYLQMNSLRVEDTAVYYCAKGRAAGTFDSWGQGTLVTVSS
VL: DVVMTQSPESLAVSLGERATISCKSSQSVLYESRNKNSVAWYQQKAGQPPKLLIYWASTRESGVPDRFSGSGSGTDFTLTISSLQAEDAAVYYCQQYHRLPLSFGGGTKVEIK

Variants are written as CDR1, CDR2 and CDR3 of the heavy chain (limits as in the source). Parent: GFTLNSYGIS, VIYSDGRRTFYGDSVK, GRAAGTFDS. This list gathers variants with a substitution at F105 (VH, numbered from residue 1). Scale: log10 of Kd in nM, estimated from mating counts; low values are strong binders. A mean of the replicates is given; it leaves out those without a signal. Where no diploid with the target was found in any replicate, the entry reads "nd": below detection, most likely a poor binder, though not proof of it. Three control strains display no target. For library AAYL49, 15% of the pairings with them gave a signal, with a median of 4.06 and one signal in twenty below 2.83, so weak values seen in few replicates may be background.

* GFTLNSYGIS / VIYSDGRRTFYGDSVK / GRAAGTCDS -> 3.65 (1 of 3 replicates)
* GFTLNSYGIS / VIYSDGRRSFYGDSVK / GRAAGTRDS -> 2.11 (3 of 3 replicates)
* GFTLNSYGIS / VIYCDLRRTFYGDSVK / GRAAGTPDS -> nd (0 of 3 replicates)
* GFTLNEYGIS / VIYSDGRRTFYGDYVK / GRAAGTLDS -> 1.68 (3 of 3 replicates)
* GFTYNSYGIS / VIQSDGRRTFYGDSVK / GRAAGTLDS -> 4.87 (1 of 3 replicates)
* GFTLNSYGIS / VIYSDGRRTFYGQSVK / GRAWGTIDS -> 1.34 (3 of 3 replicates)
* GFTLNSYGIS / VIYSDGRRTFYGDSVN / GRAAGTDDG -> 1.58 (3 of 3 replicates)
* GFTLNSYGIS / VIYSDGRRTFYCDSVK / GRAAGTDDS -> nd (0 of 3 replicates)

For reference, the parent read 0.65 as the reference entry and 4.11 (one replicate of three) as a member of this library.

Source: Engelhart et al. 2022 (doi:10.1038/s41597-022-01779-4), MIT Lincoln Laboratory and A-Alpha Bio; data file from the FLAb repository.